Laboratory results from ChEMBL document CHEMBL1671631, “Staphylococcus aureus PBP4 is essential for beta-lactam resistance in community-acquired methicillin-resistant strains” (2008).
Converted amounts (≈) assume the structure as drawn.

Test system: Staphylococcus aureus
Assay: Antimicrobial activity against wild type community-acquired methicillin-resistant Staphylococcus aureus MW2 ex serotype USA400 by microdilution method
Assay type: functional
Procedure, shortened: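 Broth microdilution MIC per CLSI guidelines, inoculum 5 x 10^5 CFU/ml, confirmed by plating serial dilutions. Run in triplicate; three independent clones per mutant. Reported as the median of at least three independent experiments. MBC: clear wells plated onto drug-free tryptic soy agar, 37°C, 24 and 48 h. pEPSA5-carrying strains tested with and without xylose, no chloramphenicol.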

How did the MIC turn out when `Cc1onc(-c2ccccc2)c1C(=O)N[C@@H]1C(=O)N2[C@@H]1SC(C)(C)[C@@H]2C(=O)O` [OXACILLIN] was run?
Its MIC is 128 µg/mL (≈ 319 µM).
